Tested on: rats
Settings: overdose

Cc1cc2c(s1)Nc1ccccc1N=C2N1CCN(C)CC1 [2-methyl-4-(4-methyl-1-piperazinyl)-10H-thieno[2,3-b][1,5]benzodiazepine]
salivation: significant salivation
